Laboratory results: PubChem BioAssay AID602363 (Broad Institute, 2012)
Only a part is listed here, and it is no random draw. Calls of active or inactive are those of the source.

Assay: modulators of yeast start codon fidelity, primary screen, whole organism, S. cerevisiae, single point, plate reader (AID 602363);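 further: firefly luciferase made from a UUG start codon reports start codon fidelity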
Conditions: S. cerevisiae UUG-firefly luciferase reporter, luminescence/redox ratio; at 18.7 µM; hits give high values

Row | Structure (SMILES) | activity score
1 | CCC(=O)N(c1ccccc1)C1(COC)CCN(CCn2nnn(CC)c2=O)CC1 | inactive: -0.257%
2 | CCC(=O)N(c1ccccc1)C1(COC)CCN(CCc2cccs2)CC1 | inactive: -24.8%
